Experimental data as given in patent US5795977A, “Water soluble adenosine kinase inhibitors” (Metabasis Therapeutics, Inc., priority 1996, dated 1998).

tested on: Female SA rats; test: Liver toxicity assay; format: in vivo; details: rat, i.v. infusion, total dose 75 μmole/kg, serum
Experimental: Female SA rats (150-200 g) are anesthetized with halothane and cannulated via the internal jugular vein. The animals are allowed to recover for 3 days. At this time, 37.5 μmole/kg of an AK inhibitor is dissolved in 50% PEG400 and infused through the jugular catheter over 20 minutes. Twelve hours later, an additional 37.5 μmole/kg is infused over 20 minutes (total dose =75 μmole/kg). […] Liver enzymes (serum glutamic-oxaloacetic transaminase (SGOT), serum glutamic-pyruvic transaminase (SGPT), alkaline phosphatase) and total bilirubin in the serum samples are determined by a commercial laboratory.

SMILES	Total Bilirubin
C[C@H]1O[C@@H](n2cc(-c3ccccc3)c3c(Nc4ccc(CN(C)C)cc4)ncnc32)[C@H](O)[C@@H]1O [Compound 1, 4-N-(4-(N,N-Dimethylaminomethyl)phenyl)amino-5-phenyl-7-(5-deoxy-β-D-ribofuranosyl)pyrrolo[2,3-d]pyrimidine]	0.13 mg/dL

tested on: male SA rats (maximal electroshock seizures); test: Anticonvulsant activity, maximal electroshock seizures (MES); format: in vivo; details: rat, ip; > or < = fewer or more than 50% protected at 5 mg/kg screen; >> = no activity at the stated dose
Experimental: The anticonvulsant activity of the tested compounds was evaluated in male SA rats (100-150g, Simonsen) using the maximal electroshock (MES) model described in Swinyard et al., Antiepileptic Drugs, 3d Ed. at 85-102 (Levy, et al., eds.), NY: Raven Press (1989). The rats were maintained on a 12/12 light/dark cycle in temperature controlled facilities with free access to food and water. For p.o. administration, the animals are fasted overnight, prior to the experiment. One to two hours prior to seizure testing, the animals were injected interperitoneally (ip) or orally (per os, po) with one of various doses of test compound dissolved in DMSO or PEG 400.
This endpoint was expressed as the percentage of animals in which the response was inhibited.

SMILES	ED50 at 5 mg/kg
C[C@H]1O[C@@H](n2cc(-c3ccccc3)c3c(Nc4ccc(C(=O)N5CCNCC5)cc4)ncnc32)[C@H](O)[C@@H]1O [Compound 210, 4-N-[4-(4-piperazinocarbonylphenyl)]amino-5-phenyl-7-(5-deoxy-1-β-D-ribofuranosyl)pyrrolo[2,3-d]pyrimidine]	> 5 mg/kg
C[C@H]1O[C@@H](n2cc(-c3ccccc3)c3c(Nc4ccc(C(=O)NN5CCCCC5)cc4)ncnc32)[C@H](O)[C@@H]1O [Compound 212]	> 5 mg/kg
C[C@H]1O[C@@H](n2cc(-c3ccccc3)c3c(Nc4ccc(C(=O)O)cc4)ncnc32)[C@H](O)[C@@H]1O [Compound 209, 4-N-(4carboxyphenyl)amino-5-phenyl-7-(5-deoxy-1-β-D-ribofuranosyl)pyrrolo[2,3-d]pyrimidine]	> 5 mg/kg
C[C@H]1O[C@@H](n2cc(-c3ccccc3)c3c(Nc4ccc(OCC(=O)N5CCNCC5)cc4)ncnc32)[C@H](O)[C@@H]1O [Compound 196, 4-N-[4-(4-piperazinocarbonylmethyloxy)phenyl]amino-5-phenyl-7-(5-deoxy-1-β-D-ribofuranosyl)pyrrolo(2,3-d)pyrimidine]	> 5 mg/kg
C[C@H]1O[C@@H](n2cc(-c3ccccc3)c3c(Nc4ccc(CCNC(=N)N)cc4)ncnc32)[C@H](O)[C@@H]1O [Compound 267, 4-N-[4-(2-Guanidinoethyl)phenyl]amino-5-phenyl-7-(5-deoxy-1-β-D-ribofuranosyl)pyrrolo[2,3-d]pyrimidine hydrochloride]	< 5 mg/kg
C[C@H]1O[C@@H](n2cc(-c3ccccc3)c3c(Nc4ccc(NC(=N)N)cc4)ncnc32)[C@H](O)[C@@H]1O [Compound 269, 4-N-(4-Guanidinophenyl)amino-5-phenyl-7-(5-deoxy-1-β-D-ribofuranosyl)pyrrolo[2,3-d]pyrimidine]	5 mg/kg
C[C@H]1O[C@@H](n2cc(-c3ccccc3)c3c(Nc4ccc(CN(C)C)cc4)ncnc32)[C@H](O)[C@@H]1O [Compound 1, 4-N-(4-(N,N-Dimethylaminomethyl)phenyl)amino-5-phenyl-7-(5-deoxy-β-D-ribofuranosyl)pyrrolo[2,3-d]pyrimidine]	> 5 mg/kg
C[C@H]1O[C@@H](n2cc(-c3ccccc3)c3c(Nc4ccc(CCN5CCOCC5)cc4)ncnc32)[C@H](O)[C@@H]1O [Compound 3, 4-N-[4-(2-(4-morpholino)ethyl)phenyl]amino-5-phenyl-7-(5-deoxy-β-D-ribofuranosyl)pyrrolo[2,3-d]pyrimidine]	< 5 mg/kg
C[C@H]1O[C@@H](n2cc(-c3ccccc3)c3c(Nc4ccc(C(=N)N)cc4)ncnc32)[C@H](O)[C@@H]1O [Compound 39, 4-N -(4-amidinophenyl)amino-5-phenyl-7-(5-deoxy-1-β-ribofuranosyl)pyrrolo[2,3-d]pyrimidine]	> 5 mg/kg
CCN(CC)CCNC(=O)c1ccc(Nc2ncnc3c2c(-c2ccccc2)cn3[C@@H]2O[C@H](C)[C@@H](O)[C@H]2O)cc1 [Compound 211]	> 5 mg/kg
C[C@H]1O[C@@H](n2cc(-c3ccccc3)c3c(Nc4ccc(CCO)cc4)ncnc32)[C@H](O)[C@@H]1O [Compound 2, 4-N-(4-(2-Hydroxyethyl)phenyl)amino-5-phenyl-7-(5-deoxy-β-D-ribofuranosyl)pyrrolo[2,3-d]pyrimidine]	5 mg/kg
C[C@H]1O[C@@H](n2cc(-c3ccccc3)c3c(Nc4ccc(CCS(=O)(=O)O)cc4)ncnc32)[C@H](O)[C@@H]1O [Compound 265, 4-N[4-(2-Sulfonyloxyethyl)phenylamino]-5-phenyl-7-(5-deoxy-1-β-D-ribofuranosyl)pyrrolo[2,3-d]pyrimidine]	> 5 mg/kg

Structures can show the parent of a compound that is named as a salt.
